Some compounds may have been tested in ways that are not shown here.
Test system: MDA177Tu cells
Experiment: In vitro internalization assay, MDA177Tu cells
Settings: FITC-conjugated peptides, FIG. 1A

| Sequence | effect of shifting the position of HN-1 within the peptide or jumbling the sequence: inhibition of internalization |
| --- | --- |
| GGGTSPLNIHNGQKLGGGS | did not inhibit its internalization |
| GSRRASVTSPLNIHNGQKL | did not inhibit its internalization |

Source: patent US6919425B2, “Isolation of a cell-specific internalizing peptide that infiltrates tumor tissue for targeted drug delivery” (Board of Regents, The University of Texas System, priority 2000, dated 2005)
